Consider 13 compounds from ChEMBL document CHEMBL5537184, “Discovery, Optimization, and Evaluation of Novel Pyridin-2(1H)-one Analogues as Potent TRK Inhibitors for Cancer Treatment” (J Med Chem, 2024).

Amino acid sequences for entries named in this document (tags omitted). A change or cut given only in a name is not applied to a line headed by its entry.
UniProt P04629: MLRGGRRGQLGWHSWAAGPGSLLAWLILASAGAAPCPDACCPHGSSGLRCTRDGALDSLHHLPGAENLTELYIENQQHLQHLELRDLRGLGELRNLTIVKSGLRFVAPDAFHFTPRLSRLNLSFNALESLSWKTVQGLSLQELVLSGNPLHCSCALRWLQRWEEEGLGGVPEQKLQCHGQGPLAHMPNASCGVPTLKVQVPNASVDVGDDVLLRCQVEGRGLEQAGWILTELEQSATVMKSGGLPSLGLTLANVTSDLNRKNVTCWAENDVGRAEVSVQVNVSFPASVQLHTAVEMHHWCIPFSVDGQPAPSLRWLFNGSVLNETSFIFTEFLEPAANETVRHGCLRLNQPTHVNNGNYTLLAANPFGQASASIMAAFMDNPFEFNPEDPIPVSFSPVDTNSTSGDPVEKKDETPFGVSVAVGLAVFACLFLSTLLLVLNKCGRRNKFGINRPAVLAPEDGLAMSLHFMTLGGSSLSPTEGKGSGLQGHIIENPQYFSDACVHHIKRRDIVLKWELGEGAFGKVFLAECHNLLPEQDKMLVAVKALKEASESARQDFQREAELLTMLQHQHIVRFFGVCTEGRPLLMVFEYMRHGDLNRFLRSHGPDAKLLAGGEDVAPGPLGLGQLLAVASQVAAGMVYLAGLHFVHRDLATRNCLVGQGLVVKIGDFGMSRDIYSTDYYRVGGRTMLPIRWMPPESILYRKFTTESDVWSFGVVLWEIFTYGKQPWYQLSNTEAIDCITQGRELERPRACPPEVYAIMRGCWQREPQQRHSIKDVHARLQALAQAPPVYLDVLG

Structures are written as SMILES.

The first assay concerns the target High affinity nerve growth factor receptor (Homo sapiens) (UniProt P04629). Conditions: dose 100.0 nM.
Regarding `C[C@@H](Nc1c[nH]c(=O)c(C(=O)NCCCN2CCOCC2)c1)c1c(Cl)ccc(F)c1Cl`, the inhibition is -8.6%.

On to `C[C@@H](Nc1c[nH]c(=O)c(C(=O)NC2CCOCC2)c1)c1c(Cl)ccc(F)c1Cl`, for which the inhibition was 11.3%.

In the case of `COc1ncc(N[C@H](C)c2c(Cl)ccc(F)c2Cl)cc1C(=O)Nc1ccc(CN2CCN(C)CC2)cc1`, the inhibition worked out at 1.6%.

Take `C[C@@H](Nc1cncc(C(=O)Nc2ccc(CN3CCN(C)CC3)cc2)c1)c1c(Cl)ccc(F)c1Cl`: the inhibition was -0.1%.

`CNC(=O)c1cc(N[C@H](C)c2c(Cl)ccc(F)c2Cl)c[nH]c1=O`: the inhibition stood at 7%.

Consider `C[C@@H](Nc1c[nH]c(=O)c(C(=O)Nc2cccc(F)c2)c1)c1c(Cl)ccc(F)c1Cl`, for which the inhibition is 46%.

As for `C[C@@H](Nc1c[nH]c(=O)c(C(=O)NC2CCCO2)c1)c1c(Cl)ccc(F)c1Cl` (stereo partly drawn), the inhibition was determined as 7.4%.

As to `C[C@@H](Nc1c[nH]c(=O)c(C(=O)NC2CCCCC2)c1)c1c(Cl)ccc(F)c1Cl`, the inhibition is 16%.

Regarding `C[C@@H](Nc1c[nH]c(=O)c(C(=O)NCCN2CCOCC2)c1)c1c(Cl)ccc(F)c1Cl`, the inhibition was -1.8%.

Regarding `C[C@@H](Nc1c[nH]c(=O)c(C(=O)NC2CCN(C)CC2)c1)c1c(Cl)ccc(F)c1Cl`, the inhibition amounted to 9.4%.

With `C[C@@H](Nc1c[nH]c(=O)c(C(=O)Nc2ccc(C(C)(C)C)cc2)c1)c1c(Cl)ccc(F)c1Cl`, the inhibition amounted to 29.4%.

Take `C[C@@H](Nc1c[nH]c(=O)c(C(=O)NCc2ccccc2)c1)c1c(Cl)ccc(F)c1Cl`: the inhibition was found to be 30.6%.

The next assay has as its target T1, 1-phosphatidylinositol 4,5-bisphosphate phosphodiesterase gamma-1 (Homo sapiens) (UniProt P19174).
T1 sequence (whole entry): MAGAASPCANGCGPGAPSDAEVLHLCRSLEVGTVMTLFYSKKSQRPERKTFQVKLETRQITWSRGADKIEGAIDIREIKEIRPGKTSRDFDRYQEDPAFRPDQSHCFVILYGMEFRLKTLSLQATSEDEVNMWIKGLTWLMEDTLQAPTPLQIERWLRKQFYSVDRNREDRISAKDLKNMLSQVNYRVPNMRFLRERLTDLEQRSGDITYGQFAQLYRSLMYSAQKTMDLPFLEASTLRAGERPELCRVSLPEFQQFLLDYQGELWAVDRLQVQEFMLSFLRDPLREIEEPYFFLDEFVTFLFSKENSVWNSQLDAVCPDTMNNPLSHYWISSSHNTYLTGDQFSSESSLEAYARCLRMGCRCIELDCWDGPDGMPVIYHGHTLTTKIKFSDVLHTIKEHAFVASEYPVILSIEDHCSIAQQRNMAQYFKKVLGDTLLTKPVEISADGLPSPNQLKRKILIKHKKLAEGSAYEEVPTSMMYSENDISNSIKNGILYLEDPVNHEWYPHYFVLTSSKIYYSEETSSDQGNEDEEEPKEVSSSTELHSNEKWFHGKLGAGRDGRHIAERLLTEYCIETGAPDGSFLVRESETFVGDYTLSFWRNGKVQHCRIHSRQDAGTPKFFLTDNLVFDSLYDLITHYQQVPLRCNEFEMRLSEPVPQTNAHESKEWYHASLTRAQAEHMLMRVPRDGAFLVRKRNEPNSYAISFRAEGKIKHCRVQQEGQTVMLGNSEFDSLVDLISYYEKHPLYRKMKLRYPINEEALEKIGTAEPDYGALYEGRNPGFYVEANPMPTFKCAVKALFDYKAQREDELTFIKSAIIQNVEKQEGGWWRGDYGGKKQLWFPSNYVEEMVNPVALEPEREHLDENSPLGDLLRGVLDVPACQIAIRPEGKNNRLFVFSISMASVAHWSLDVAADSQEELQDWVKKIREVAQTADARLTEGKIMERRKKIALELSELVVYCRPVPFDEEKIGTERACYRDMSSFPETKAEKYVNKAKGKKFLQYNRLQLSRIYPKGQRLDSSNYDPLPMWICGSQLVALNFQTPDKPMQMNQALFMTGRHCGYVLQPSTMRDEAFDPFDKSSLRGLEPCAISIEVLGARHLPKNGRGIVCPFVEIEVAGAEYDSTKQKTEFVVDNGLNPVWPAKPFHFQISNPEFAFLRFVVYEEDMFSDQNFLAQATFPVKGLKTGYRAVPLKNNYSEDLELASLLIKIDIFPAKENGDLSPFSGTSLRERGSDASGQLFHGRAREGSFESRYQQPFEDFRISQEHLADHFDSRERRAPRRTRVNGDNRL
Conditions: KM12, dose 100-1000 nM, time 2.0 hrs.
For the compound `C[C@@H](Nc1c[nH]c(=O)c(C(=O)Nc2ccc(CN3CCN(C)CC3)cc2)c1)c1c(Cl)ccc(F)c1Cl`, the inhibition result is “Dose-Dependent Effect”.
